Where two headings read alike, the source gives them in different places.
Tests used:
[1] = in 100 ml water at 20 °C
[2] = test system: souris

Substance: α-β-aspartate de magnésium
- solubles dans 100 ml d'eau [1]: 20 g
- DL 50 ([2]; intragastric, female mouse): ~6,6 g.kg⁻¹
- DL 50 ([2]; intragastric, male mouse): ~7,1 g.kg⁻¹
- DL 50 ([2]; intravenous, female mouse): ~230,5 mg.kg⁻¹
- DL 50 ([2]; intravenous, male mouse): ~238,4 mg.kg⁻¹
- pH (in solution): 9,8
- stabilité en solution (in solution, room temperature): stable
- hygroscopicité (solid product): hygroscopique
